Target: Cannabinoid receptor 1 (Rattus norvegicus, UniProt P20272)
Test: Displacement of [3H]-HU-243 from CB1 receptor in Sabra rat brain synaptosomes after 90 mins
Format: subcellular

The chains behind the UniProt entries cited, without tags or fusion partners.
UniProt P20272, whole entry: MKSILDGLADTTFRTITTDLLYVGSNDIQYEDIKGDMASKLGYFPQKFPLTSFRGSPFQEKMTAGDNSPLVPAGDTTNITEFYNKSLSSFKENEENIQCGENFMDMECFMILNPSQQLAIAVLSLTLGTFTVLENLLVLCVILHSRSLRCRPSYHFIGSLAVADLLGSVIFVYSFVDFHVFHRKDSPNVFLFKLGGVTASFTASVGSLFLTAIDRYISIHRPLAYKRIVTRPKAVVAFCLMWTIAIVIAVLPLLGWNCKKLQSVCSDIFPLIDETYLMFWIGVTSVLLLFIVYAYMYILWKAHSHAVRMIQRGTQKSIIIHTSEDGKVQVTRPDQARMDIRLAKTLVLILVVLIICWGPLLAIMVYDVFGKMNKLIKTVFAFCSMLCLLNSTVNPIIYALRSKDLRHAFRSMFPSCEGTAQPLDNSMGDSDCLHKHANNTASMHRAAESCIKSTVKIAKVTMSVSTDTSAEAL

SMILES: C=C(C)[C@@H]1CCC(C)=C[C@H]1c1c(O)cc(CCCCC)cc1O [CANNABIDIOL]
- Ki: > 10 µM

From ChEMBL document CHEMBL3808335, “Discovery of KLS-13019, a Cannabidiol-Derived Neuroprotective Agent, with Improved Potency, Safety, and Permeability” (ACS Med Chem Lett, 2016)
